In patent US7884117B2, “Carbonylamino pyrrolopyrazoles, potent kinase inhibitors” (Pfizer Inc., priority 2005, dated 2011):
Where two headings read alike, the source gives them in different places.

The chains behind the UniProt entries cited, without tags or fusion partners. Residues count along the entry.
UniProt O96013, 321-572 limits assumed: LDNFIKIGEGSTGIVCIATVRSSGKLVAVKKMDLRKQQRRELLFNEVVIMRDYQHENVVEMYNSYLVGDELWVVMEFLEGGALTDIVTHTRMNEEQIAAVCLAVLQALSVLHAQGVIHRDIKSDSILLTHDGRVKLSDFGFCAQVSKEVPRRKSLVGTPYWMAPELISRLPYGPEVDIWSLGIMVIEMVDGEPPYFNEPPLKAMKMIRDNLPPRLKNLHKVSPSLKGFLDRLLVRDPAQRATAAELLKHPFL

What was measured:
[1] = biological target: T1, PAK4 Kinase domain (PAK4 KD) (Homo sapiens, UniProt O96013); assay: PAK4 kinase domain enzymatic assay (PK/LDH-coupled, Ki); assay type: biochemical; conditions: Ki data
T1 construct: Cloning, expression, and purification of recombinant PAK4 Kinase domain (PAK4 KD); His tag (pET28a(+)/pET24a(+), Ni-NTA purification) (N, cleaved yes); GST (pGST4.5, glutathione column) (N, cleaved yes); made in house; host or cells: E. coli BL21(DE3)

[2] = biological target: T2, PAK4 kinase activity in whole cells (TR-293-KDG, modified HEK 293) (Homo sapiens, UniProt O96013); assay: PAK4 cellular assay: sandwich ELISA of PAK4-dependent phosphorylation of GEF-H1b in TR-293-KDG cells; assay type: cell-based
T2 construct: engineered to overexpress both GEF-H1b and the kinase domain (KD) of PAK4; expressed in transfected cells; host or cells: TR-293-KDG (modified HEK 293, Trex system, Invitrogen)

| Compound | Ki ([1]; PAK4 Kinase Domain) | EC50 ([2]; PAK4 cellular assay, TR-293-KDG cells, 3-hour exposure, read-out: EC50) | Ki [1] | EC50 ([2]; EC50) |
| --- | --- | --- | --- | --- |
| CN(C)C[C@@H](OC(=O)N1Cc2c(NC(=O)c3ccccc3)n[nH]c2C1(C)C)c1ccccc1 [Example 1, (1S)-2-(dimethylamino)-1-phenylethyl 3-(benzoylamino)-6,6-dimethyl-4,6-dihydropyrrolo[3,4-c]pyrazole-5(1H)-carboxylate] | 10.1 nM | 10.7 nM |  |  |
| CN(C)CC(OC(=O)N1Cc2c(NC(=O)c3ccccc3)n[nH]c2C1(C)C)c1ccccc1 (stereo not shown) [Example 21, 2-(dimethylamino)-1-phenylethyl 3-(benzoylamino)-6,6-dimethyl-4,6-dihydropyrrolo[3,4-c]pyrazole-5(1H)-carboxylate] |  |  | 24.8 nM | 37.6 nM |
